By UniProt entry, the sequences of proteins in these tests, tags left out. Residues count along the entry.
UniProt P09483, 31-630: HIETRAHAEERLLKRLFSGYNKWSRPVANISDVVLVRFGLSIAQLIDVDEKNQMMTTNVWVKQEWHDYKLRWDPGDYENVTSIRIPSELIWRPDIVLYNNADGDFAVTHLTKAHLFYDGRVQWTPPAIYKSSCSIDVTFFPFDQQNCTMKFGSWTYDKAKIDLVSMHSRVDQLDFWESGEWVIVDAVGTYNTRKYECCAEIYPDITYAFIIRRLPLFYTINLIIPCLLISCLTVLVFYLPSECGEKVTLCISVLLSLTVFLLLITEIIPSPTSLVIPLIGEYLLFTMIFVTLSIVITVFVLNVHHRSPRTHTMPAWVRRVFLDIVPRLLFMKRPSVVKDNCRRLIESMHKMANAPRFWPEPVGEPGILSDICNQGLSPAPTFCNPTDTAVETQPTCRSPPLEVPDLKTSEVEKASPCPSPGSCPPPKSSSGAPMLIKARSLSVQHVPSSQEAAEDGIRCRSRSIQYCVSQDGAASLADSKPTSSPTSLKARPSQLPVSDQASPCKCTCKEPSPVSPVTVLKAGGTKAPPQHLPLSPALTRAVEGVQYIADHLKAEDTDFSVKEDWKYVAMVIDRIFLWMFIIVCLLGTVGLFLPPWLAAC
UniProt P12390, 25-500: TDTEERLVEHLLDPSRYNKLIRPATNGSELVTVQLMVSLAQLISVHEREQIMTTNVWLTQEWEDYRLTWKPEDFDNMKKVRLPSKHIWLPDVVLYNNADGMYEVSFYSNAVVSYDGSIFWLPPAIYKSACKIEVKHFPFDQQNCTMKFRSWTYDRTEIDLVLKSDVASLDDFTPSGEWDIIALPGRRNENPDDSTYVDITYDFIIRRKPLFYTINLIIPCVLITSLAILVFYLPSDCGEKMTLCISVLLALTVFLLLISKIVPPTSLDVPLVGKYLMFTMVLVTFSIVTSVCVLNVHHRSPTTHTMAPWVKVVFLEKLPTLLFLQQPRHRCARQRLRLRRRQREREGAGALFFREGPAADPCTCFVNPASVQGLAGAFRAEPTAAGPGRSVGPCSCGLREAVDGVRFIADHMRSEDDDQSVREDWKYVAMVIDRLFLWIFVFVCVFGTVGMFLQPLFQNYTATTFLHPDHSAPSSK

What follows are molecules tested against T1, high affinity CNS nicotinic receptors (Rattus norvegicus, UniProt P09483+P12390) (assay: biochemical).
T1 construct: Brain membrane preparations were obtained from brain tissue of either males or females; from tissue; host or cells: rat (Sprague-Dawley) brain without cerebellum, membrane preparation
Type: binding, Rats (Sprague-Dawley)
Work on `NCC/C=C/c1cncnc1` [Sample No. 1, (E)-4-(5-pyrimidinyl)-3-butene-1-amine monofumarate] yielded a Ki of 269 nM.
Molecule `CNCC/C=C/c1cncnc1` [Sample No. 2, (E)-N-methyl-4-(5-pyrimidinyl)-3-butene-1-amine] has a Ki of 86 nM.
Molecule `COc1cncc(/C=C/CCN)c1` [Sample No. 3, (E)-4-[3-(5-methoxypyridin)yl] -3-butene-1-amine monofumarate] has a Ki of 22 nM.
`CNCC/C=C/c1ccc(C)nc1` [Sample No. 6, (E)-N-methyl-4-[3-(6-methylpyrindin)yl]-3-butene-1-amine] gave a Ki of 176 nM.
